# Columns and labels:
# RET^V804M Cell = experiment: BaF3 cell assay, RET^V804M (CellTiter-Glo viability); assay type: cell-based; details: Mus musculus, RET^V804M cells, 48 hours
# [1] = tested on: Non-modified BaF3 cells (WT); experiment: BaF3 cell assay, non-modified (WT) cells with IL3; details: Mus musculus, BaF3, 48 h, read-out: BaF3 IC50, Non-modified BaF3 cells (WT) with IL3, 48 hours, CellTiter-Glo
# [2] = tested on: BaF3 cell lines expressing KDR; experiment: BaF3 cell assay, KDR (CellTiter-Glo viability); assay type: cell-based; details: Mus musculus, BaF3 cells expressing KDR, 48 hours
smiles,measurement,setting,value
"Cn1nc(-c2[nH]c3ncccc3c2Cl)c2c(N)ncnc21 [Example 65, 3-(3-Chloro-1H-pyrrolo[2,3-b]pyridin-2-yl)-1-methyl-pyrazolo[3,4-d]pyrimidin-4-amine]",IC50,RET^V804M Cell,3.85 µM
same,IC50,[1],> 10 µM
"CS(=O)(=O)N1CCC(n2nc(-c3[nH]c4ccccc4c3Cl)c3c(N)ncnc32)CC1 [Example 4, 3-(3-Chloro-1H-indol-2-yl)-1-(1-methylsulfonyl-4-piperidyl)pyrazolo[3,4-d]pyrimidin-4-amine]",IC50,[1],7.74 µM
same,IC50,[2],6.94 µM
"CC(C)n1nc(-c2[nH]c3ncccc3c2Cl)c2c(N)ncnc21 [Example 55, 3-(3-Chloro-1H-pyrrolo[2,3-b]pyridin-2-yl)-1-isopropyl-1H-pyrazolo[3,4-d]pyrimidin-4-amine]",IC50,[1],3.16 µM
same,IC50,[2],1.8 µM
"CC(C)n1nc(-c2cc3cccnc3[nH]2)c2c(N)ncnc21 [Example 37, 1-Isopropyl-3-(1H-pyrrolo[2,3-b]pyridin-2-yl)pyrazolo[3,4-d]pyrimidin-4-amine]",IC50,[1],4.01 µM
same,IC50,[2],1.37 µM
"CN(C)C1CCN(CCn2nc(-c3[nH]c4ncccc4c3Cl)c3c(N)ncnc32)CC1 [Example 77, 3-(3-Chloro-1H-pyrrolo[2,3-b]pyridin-2-yl)-1-(2-(4-(dimethylamino)piperidin-1-yl)ethyl)-1H-pyrazolo[3,4-d]pyrimidin-4-amine]",IC50,[1],> 10 µM
same,IC50,[2],> 10 µM
"Nc1ncnc2c1c(-c1[nH]c3ncccc3c1Cl)nn2C1CCCCC1 [Example 67, 3-(3-Chloro-1H-pyrrolo[2,3-b]pyridin-2-yl)-1-cyclohexyl-pyrazolo[3,4-d]pyrimidin-4-amine]",IC50,RET^V804M Cell,0.335 µM
same,IC50,[1],3.16 µM

# Reference: patent US10844067B2, “Heterocyclic compounds as RET kinase inhibitors” (Cancer Research Technology Limited, priority 2016, dated 2020)
